Laboratory results from patent publication US9290485B2, “N-((6-amino-pyridin-3-yl)methyl)-heteroaryl-carboxamides” (NOVARTIS AG, priority 2010, dated 2016).

Amino acid sequences for entries named in this document (tags omitted).
UniProt P03952, whole entry, looked up: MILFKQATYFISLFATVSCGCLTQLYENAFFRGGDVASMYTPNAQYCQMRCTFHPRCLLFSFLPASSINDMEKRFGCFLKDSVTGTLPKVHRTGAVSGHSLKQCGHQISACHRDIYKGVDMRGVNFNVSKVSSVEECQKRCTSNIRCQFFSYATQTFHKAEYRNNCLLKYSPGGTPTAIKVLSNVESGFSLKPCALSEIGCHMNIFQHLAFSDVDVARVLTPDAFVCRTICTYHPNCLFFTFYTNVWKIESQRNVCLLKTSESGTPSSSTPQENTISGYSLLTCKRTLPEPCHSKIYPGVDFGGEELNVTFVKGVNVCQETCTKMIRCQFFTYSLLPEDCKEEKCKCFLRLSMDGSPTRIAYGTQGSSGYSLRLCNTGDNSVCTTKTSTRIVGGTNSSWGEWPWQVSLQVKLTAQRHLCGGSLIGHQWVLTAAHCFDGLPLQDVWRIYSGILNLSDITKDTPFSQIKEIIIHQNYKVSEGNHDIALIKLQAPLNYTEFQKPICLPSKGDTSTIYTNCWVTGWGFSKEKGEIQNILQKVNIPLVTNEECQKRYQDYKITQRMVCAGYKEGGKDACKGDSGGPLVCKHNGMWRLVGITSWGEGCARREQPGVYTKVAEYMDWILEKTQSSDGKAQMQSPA

Biological target: human plasma kallikrein (Homo sapiens (Human), UniProt P03952)
Conditions: human plasma kallikrein 25 pM, substrate 0.5 uM, 1 hour pre-incubation at room temperature, read at t=60 min

SMILES	IC50 [nM]
Cc1ccc2cc(Cn3cc(C(=O)NCc4c(C)cc(N)nc4C)nn3)cnc2c1 [Example 156, N-((6-amino-2,4-dimethylpyridin-3-yl)methyl)-1-((7-methylquinolin-3-yl)methyl)-1H-1,2,3-triazole-4-carboxamide]	0.92
Cc1cc(N)nc(C)c1CNC(=O)c1ccc(Cn2ccc3ccccc3c2=O)o1 [Example 1, N-((6-amino-2,4-dimethylpyridin-3-yl)methyl)-5-((1-oxoisoquinolin-2(1H)-yl)methyl)furan-2-carboxamide]	810
Cc1cc(N)nc(C)c1CNC(=O)c1cnn(Cc2ccc3ccc(Cl)cc3n2)c1 [Example 157, N-((6-amino-2,4-dimethylpyridin-3-yl)methyl)-1-((7-chloroquinolin-2-yl)methyl)-1H-pyrazole-4-carboxamide]	2
Cc1cc(N)nc(C)c1CNC(=O)c1cnn(Cc2ccc3c(c2)nc(C)n3C)c1 [Example 165, N-((6-Amino-2,4-dimethylpyridin-3-yl)methyl)-1-((1,2-dimethyl-1H-benzo[d]imidazol-5-yl)methyl)-1H-pyrazole-4-carboxamide]	6
Cc1ccc2cc(Cn3cc(C(=O)NC4(c5c(C)cc(N)nc5C)CC4)nn3)ccc2n1 [Example 164, N-((6-Amino-2,4-dimethylpyridin-3-yl)cyclopropyl)-1-((2-methylquinolin-6-yl)methyl)-1H-1,2,3-triazole-4-carboxamide]	1200
Cc1cc(N)nc(C)c1CNC(=O)c1cn(Cc2ccc3ccc(Cl)cc3n2)nn1 [Example 158, N-((6-amino-2,4-dimethylpyridin-3-yl)methyl)-1-((7-chloroquinolin-2-yl)methyl)-1H-1,2,3-triazole-4-carboxamide]	4
Cc1cc(N)nc(C)c1CNC(=O)c1cnn(Cc2ccc(C(=O)NC(C)C)cc2)c1 [Example 120, N-((6-amino-2,4-dimethylpyridin-3-yl)methyl)-1-(4-(isopropylcarbamoyl)benzyl)-1H-pyrazole-4-carboxamide]	223
Cc1cc(N)nc(C)c1CNC(=O)c1coc(Nc2ccccc2)n1 [Example 20, N-((6-amino-2,4-dimethylpyridin-3-yl)methyl)-2-(phenylamino)oxazole-4-carboxamide]	7400
COc1ccc(Cn2cc(C(=O)NCc3c(C)cc(N)nc3C)cn2)cc1 [Example 13, N-((6-amino-2,4-dimethylpyridin-3-yl)methyl)-1-(4-methoxybenzyl)-1H-pyrazole-4-carboxamide]	150
Cc1cc(N)nc(C)c1CNC(=O)c1cc(Cn2ccc3ccccc3c2=O)oc1C [Example 79, N-((6-amino-2,4-dimethylpyridin-3-yl)methyl)-2-methyl-5-((1-oxoisoquinolin-2(1H)-yl)methyl)furan-3-carboxamide]	166
